p53 reactivator = mutant p53 re-activation in reporter cells. H1299 p53-A138V BP100-luciferase reporter, luminescence, 24 h. Potency, µM (top dose mostly 92.2 µM), usual class: activators. hit rate 0.063% among 320,000; further: nearly all actives have a fitted effect of over 45% in size
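p53-null H1299 cells stably carrying temperature-sensitive p53-A138V and a BP100-luciferase reporter were pinned with compounds (4-point, 1:5 series) and held 24 hrs at 37 deg C. Luminescence was read 10 min after detection reagent.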
A549 tox = A549 cytotoxicity, counter-screen for Nrf2 inhibitors. hit rate 0.16% among 390,000. A549 ARE-Fluc cells, CellTiter-Fluor viability, 18-24 h. Potency, µM (highest dose often 46 µM), usual class: inhibitors. AID 504648
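A549 ARE_Fluc cells in 5% FBS OPTI-MEM were exposed to compounds in concentration-response for 18-24 h at 37 deg C. Viability was read by CellTiter-Fluor fluorescence (Ex 405/Em 525) after 30 min, before the luciferase read.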
ClpP mod = qHTS Assay for Activators of ClpP | purified B. subtilis ClpP, FRET peptide cleavage, 20 min | ATP-dependent Clp protease proteolytic subunit (Bacillus subtilis (strain 168)), P80244 | hit rate 1.9% among 340,000 | Potency, µM (top dose mostly 57.5 µM); active means well fitted falling curve with a large enough effect; inconclusive means small, poorly fitted or top-dose-only effect; inactive means no such curve, though single readings can be large or run the other way; further: the source files actives as falling curves though it sought activators and does not explain the sign; nearly all actives have a fitted effect of over 65% in size
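Buffer: 100 mM Tris/HCl pH8, 100 mM KCl, 0.05% low protease BSA, 2.5% glycerol, 0.01% Tween-20. ClpP 10 microg/mL final; 20 min RT; delta FRET normalized to ADEP and DMSO controls.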
miR-21 reporter = miR-21 reporter, rising signal | HeLa miR-21 FLuc reporter, luciferase, 48 h | Potency, µM (highest dose often 38.3 µM) | 340,000 tested, under 10 active | AID 2288; active = well fitted rising curve with a large enough effect; inconclusive = small, poorly fitted or top-dose-only effect; inactive = no such curve, though single readings can be large or run the other way;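 further: miR-21 action dims this reporter so a rising signal means less miR-21 action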
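Luminescence from a firefly luciferase reporter carrying a miR-21 binding site downstream, stably expressed under a CMV promoter in HeLa cells that make miR-21 endogenously, reports miRNA modulation after 48 h compound exposure up to approximately 40uM final.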
Nrf2 block = inhibitors of Nrf2 signaling; A549 ARE-Fluc reporter, luciferase luminescence, 18-24 h; Potency, µM (series often up to 46 µM), usual class: inhibitors; hit rate 2.1% among 360,000; AID 504444; further: nearly all actives have a fitted effect of over 60% in size
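In this cell-based qHTS, ARE-driven firefly luciferase in A549 cells reports Nrf2 activity; the luminescent signal after BugLite lysis is the measured value, with a prior CellTiter-Fluor read for cell health.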
Nrf2 activator = activates Nrf2 signaling; AREc32 ARE-luciferase reporter (MCF7-derived line), luminescence, 24 h; Potency, µM (top dose mostly 46.1 µM), actives largely listed as activators; hit rate 0.31% among 410,000; AID 624171; further: nearly all actives have a fitted effect of over 65% in size
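AREc32_Fluc, 1000 cells/well, OPTI-MEM + 5% FBS, o/n 37 deg C 5% CO2; 23 nL cpd by pin tool, 24 hr; Steady-Glo 30 min RT, luminescence.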
Of the large screens only hits and unclear results are named; the others gave an inactive call; ! = a repeat was not active. Sampled rows, rich in hits. Any-hit rate of the full collection: about 3.7%. Unless noted, the call rests on the fitted dose curve; in most records, active means well fitted curve in the direction sought with a large enough effect; inconclusive means small, poorly fitted or top-dose-only effect, or another doubt; inactive means no such curve, though single readings can be large; an effect the other way counts as inactive or inconclusive.

CCCCn1cnc2cc(NCc3cccc(OC)c3O)ccc21	ClpP mod 32µM
NC(Cc1ccc(O)cc1)C(=O)NN=Cc1ccc(N(CCCl)CCCl)cc1 (configuration not stated)	ClpP mod 28µM (no result: p53 reactivator, miR-21 reporter)
Cc1ccc(-n2nc3c(=O)n(CC(=O)Nc4ccccc4F)nc(C)c3c2C)c(C)c1	Nrf2 block inconclusive (no result: p53 reactivator)
CCOc1cc(-c2nc3c(C)cccn3c2NCC2CCCO2)ccc1O (configuration not stated)	ClpP mod 14µM
Cc1cccn2c(NCC3CCCO3)c(C(C)C)nc12 (configuration not stated)	ClpP mod 22µM (no result: A549 tox)
Cc1cccn2c(=O)c(C=Nc3ccccc3)c(NCc3ccco3)nc12	Nrf2 activator inconclusive
C[C@H]1CC[C@@H]2[C@@H](C)[C@H]3C(C[C@H]4C5CC[C@H]6C[C@@H](O)CC[C@]6(C)C5CC[C@]34C)N2C1 (some centres not stated)	none (no result: p53 reactivator, ClpP mod, miR-21 reporter, Nrf2 activator)
CCOc1cccc(=NC2CCCCC2)c2c(C)n(C)c(C)c12	A549 tox inconclusive, miR-21 reporter inconclusive, Nrf2 block 16µM
COc1ccc(Nc2nc(N)nc(CSc3nc4ccccc4s3)n2)cc1	Nrf2 block 21µM (no result: p53 reactivator)
CCOC(=O)C1=C(CN2CCN(c3ccc(C)cc3C)CC2)NC(=O)NC1c1ccc(OC)cc1 (configuration not stated)	miR-21 reporter inconclusive, Nrf2 block 15µM (no result: p53 reactivator)
CCOC(=O)c1cc2cc(OC)ccc2n1C1CCN(Cc2ccccc2)CC1	none (no result: p53 reactivator, A549 tox, miR-21 reporter, Nrf2 block)
COc1ccc(NC(=O)Cn2c3ccccc3c3nc4n(c(=O)c32)CCS4)cc1	Nrf2 block inconclusive (no result: ClpP mod)
COc1ccc(C(=O)Nc2ccc(S(=O)(=O)N(Cc3ccccc3)c3ccccc3)cc2)cc1	ClpP mod inconclusive, miR-21 reporter inconclusive, Nrf2 block 7.3µM (no result: p53 reactivator)
Cc1ccc2c(c1)c(C1=c3ccccc3=NC1=O)c(O)n2C	Nrf2 block inconclusive, Nrf2 activator 11µM
O=C(Nc1ccc2oc(-c3cccnc3)nc2c1)c1ccc(-c2cccc(Cl)c2)o1	Nrf2 block inconclusive (no result: p53 reactivator)
Cc1ccccc1N1C(=O)NC(=O)/C(=C/c2ccc(N3CCOCC3)o2)C1=O	none (no result: ClpP mod)
Cc1ccccc1N1C(=O)NC(=O)/C(=C\c2cc(Br)c(N3CCOCC3)o2)C1=O	p53 reactivator inconclusive, A549 tox 23µM, Nrf2 block 16µM
O=C(CCl)c1ccc(O)c(O)c1	none (no result: p53 reactivator, A549 tox, miR-21 reporter, Nrf2 block, Nrf2 activator)
O=[N+]([O-])c1oc2ccc3ccccc3c2c1CCO	A549 tox inconclusive, Nrf2 block 18µM (no result: p53 reactivator, miR-21 reporter)
Cc1cc(NC(=O)c2cccn(Cc3cccc(Cl)c3)c2=O)no1	ClpP mod 35µM (no result: p53 reactivator, Nrf2 block)
S=c1[nH]nc(-c2cccs2)n1C1CCCCC1	ClpP mod 32µM
O=c1c(C=NCc2cccs2)c(O)n(C2CCCCC2)c(=O)n1C1CCCCC1	Nrf2 block inconclusive
CC1OC(OC2C(O)CC(OC3C(O)CC(OC4CCC5(C)C(CCC6C5CCC5(C)C(C7=CC(=O)OC7)C(O)CC65O)C4)OC3C)OC2C)CC(O)C1O (configuration not stated)	A549 tox inconclusive, Nrf2 block 0.092µM (no result: p53 reactivator, miR-21 reporter)
C[C@H]1O[C@@H](O[C@H]2[C@@H](O)C[C@H](O[C@H]3[C@@H](O)C[C@H](O[C@H]4CC[C@@]5(C)[C@H](CC[C@@H]6[C@@H]5CC[C@]5(C)[C@@H](C7=CC(=O)OC7)CC[C@]65O)C4)O[C@@H]3C)O[C@@H]2C)C[C@H](O)[C@@H]1O	A549 tox inconclusive, miR-21 reporter inconclusive, Nrf2 block 0.016µM
C[C@@H]1O[C@@H](O[C@H]2C[C@@H](O)[C@]3(CO)[C@H]4[C@H](O)C[C@]5(C)[C@@H](C6=CC(=O)OC6)CC[C@]5(O)[C@@H]4CC[C@]3(O)C2)[C@H](O)[C@H](O)[C@H]1O	A549 tox inconclusive, miR-21 reporter inconclusive, Nrf2 block 0.0058µM (no result: p53 reactivator)
CC12CC[C@H]3[C@@H](CCC4(O)C[C@H](O)CCC34/C=N/NC(=O)c3ccccc3Cl)C1(O)CCC2C1=CC(=O)OC1 (some centres not stated)	none
CCOC(=O)CN1C(=O)N[C@@H](c2cccc(C(F)(F)F)c2)C(C(C)=O)=C1C	Nrf2 block inconclusive (no result: p53 reactivator, miR-21 reporter)
COc1cc2c3c(c1OC)Oc1ccc(cc1)C[C@H]1c4c(cc(OC)c(OC)c4Oc4ccc(cc4)C[C@@H]3N(C)CC2)CCN1C	none (no result: miR-21 reporter)
COc1ccc2cc1Oc1ccc(cc1)C[C@H]1c3cc(c(OC)cc3CCN1C)Oc1c(OC)c(OC)cc3c1[C@H](C2)N(C)CC3	A549 tox 6.5µM, miR-21 reporter inconclusive, Nrf2 block inconclusive
COc1cc2c3cc1Oc1cc(ccc1O)C[C@@H]1c4c(cc(OC)c(O)c4Oc4ccc(cc4)C[C@H]3N(C)CC2)CCN1C	A549 tox 8.2µM
COc1cc2c3cc1Oc1c(OC)c(OC)cc4c1[C@H](Cc1ccc(cc1)Oc1cc(ccc1O)C[C@H]3N(C)CC2)N(C)CC4	A549 tox 13µM (no result: miR-21 reporter)
CN(c1ccccc1)S(=O)(=O)c1cccc(C(=O)N2CCN(c3ccccn3)CC2)c1	Nrf2 block inconclusive
C[C@H]1[C@H](OC(=O)CCC(=O)NCc2ccc(C(=O)O)cc2)O[C@@H]2O[C@@]3(C)CC[C@H]4[C@H](C)CC[C@@H]1C24OO3	p53 reactivator inconclusive, A549 tox 21µM, miR-21 reporter inconclusive, Nrf2 block 21µM (no result: ClpP mod)
c1nc2nc3c(c(N4CCNCC4)n2n1)CCCC3	none
COc1cccc(N2CCN(c3c4c(nc5nncn35)CCC4)CC2)c1	Nrf2 block 16µM (no result: p53 reactivator)
CCC(=O)Nc1ccc(C(=O)NNC(=O)c2cc([N+](=O)[O-])cc([N+](=O)[O-])c2)cc1	Nrf2 block inconclusive (no result: ClpP mod)
CNC(=O)Oc1cccc(-c2cn3cc(OC(=O)NC)ccc3n2)c1	p53 reactivator inconclusive, ClpP mod 14µM, Nrf2 block inconclusive
Cc1ccc(OCC(=O)N2CCN(CCc3ccncc3)CC2)cc1	Nrf2 block inconclusive (no result: p53 reactivator)
CSc1ccc(CN2CCN(C(=O)COc3ccc(C)cc3)CC2)cc1	Nrf2 block 21µM!
Cn1nc(-c2ccc(OCC(=O)N3CCN(Cc4ccccc4)CC3)cc2)c2ccccc2c1=O	A549 tox inconclusive, Nrf2 block 18µM
Cn1cccc1CN1CCN(C(=O)COc2ccccc2)CC1	none
Cc1ccc(-c2nnc(Nc3ccc(Br)cc3)c3ccccc23)cc1S(=O)(=O)NCc1nc2ccccc2[nH]1	ClpP mod inconclusive, Nrf2 block inconclusive (no result: p53 reactivator)

Source: PubChem
